Columns and labels:
[1] = target: Carbonic anhydrase 1 (Homo sapiens) (UniProt P00915); assay: Activation of human recombinant CA1 by stopped flow CO2 hydrase method
[2] = target: Carbonic anhydrase 2 (Homo sapiens) (UniProt P00918); assay: Activation of human recombinant CA2 by stopped flow CO2 hydrase method
[3] = target: Carbonic anhydrase 6 (Homo sapiens) (UniProt P23280); assay: Activation of human recombinant CA6 by stopped flow CO2 hydrase method
N[C@H](Cc1ccccc1)C(=O)O = settings: Homo sapiens; 10 uM

The chains behind the UniProt entries cited, without tags or fusion partners. Where a name states a change or a piece, a line headed by the entry shows the natural chain unless it says otherwise.
UniProt P00915: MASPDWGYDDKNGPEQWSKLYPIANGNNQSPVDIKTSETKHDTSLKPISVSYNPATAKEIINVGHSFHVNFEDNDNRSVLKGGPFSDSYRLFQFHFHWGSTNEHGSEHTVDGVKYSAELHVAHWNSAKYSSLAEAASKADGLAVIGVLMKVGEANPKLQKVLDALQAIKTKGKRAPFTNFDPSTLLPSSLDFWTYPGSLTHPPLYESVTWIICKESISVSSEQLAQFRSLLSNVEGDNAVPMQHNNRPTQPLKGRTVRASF
UniProt P23280: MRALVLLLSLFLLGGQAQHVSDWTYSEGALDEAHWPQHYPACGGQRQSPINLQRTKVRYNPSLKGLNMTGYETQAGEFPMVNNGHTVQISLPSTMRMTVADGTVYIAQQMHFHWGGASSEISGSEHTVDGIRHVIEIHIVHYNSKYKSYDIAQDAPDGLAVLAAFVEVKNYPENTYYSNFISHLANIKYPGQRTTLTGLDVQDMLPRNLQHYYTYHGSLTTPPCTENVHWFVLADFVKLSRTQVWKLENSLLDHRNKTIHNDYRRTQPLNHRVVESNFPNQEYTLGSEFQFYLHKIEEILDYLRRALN

Row | Compound | Ka [1] [µM] | Ka [2] [µM] | Ka [3] [µM] | kcat (N[C@H](Cc1ccccc1)C(=O)O)
1 | N[C@H](Cc1ccccc1)C(=O)O | 86 | 0.035 | 16 | –
2 | N[C@@H](Cc1ccccc1)C(=O)O | 0.07 | 0.013 | 1.23 | –
3 | Carbonic anhydrase 1 (Homo sapiens), P00915 | – | – | – | 2.3 10^5/s
